# Target: human μ opiate receptor (Homo sapiens, UniProt P35372)
# By UniProt entry, the sequences of proteins in these tests, tags left out.
# UniProt P35372, whole entry, looked up: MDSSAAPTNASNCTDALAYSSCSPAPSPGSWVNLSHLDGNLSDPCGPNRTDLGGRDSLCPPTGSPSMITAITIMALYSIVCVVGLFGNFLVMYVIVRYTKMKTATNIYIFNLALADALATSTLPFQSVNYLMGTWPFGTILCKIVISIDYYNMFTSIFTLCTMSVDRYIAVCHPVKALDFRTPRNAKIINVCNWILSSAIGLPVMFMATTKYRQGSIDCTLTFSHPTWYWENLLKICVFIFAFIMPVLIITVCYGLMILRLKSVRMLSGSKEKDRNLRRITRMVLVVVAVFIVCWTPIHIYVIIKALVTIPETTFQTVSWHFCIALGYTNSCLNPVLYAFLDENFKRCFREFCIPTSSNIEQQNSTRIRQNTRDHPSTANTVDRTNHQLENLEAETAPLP
# Test: [3H]-naloxone displacement, SPA, membranes of CHO-K1 cells
# Details: 1 μM test substance; inhibition of specific binding of 1 nmol/l [3H]-naloxone
row,SMILES,μ opioid receptor [1 μM] % inhibition [%]
1,"CN1CCN(C2(Cc3ccccc3)CCN(C(=O)CC(NS(=O)(=O)c3ccc4ccccc4c3)c3ccccc3)CC2)CC1 (centres unmarked) [Compound 118, N-(3-(4-benzyl-4-(4-methylpiperazin-1-yl)piperidin-1-yl)-3-oxo-1-phenylpropyl)naphthalene-2-sulfonamide]",18
2,"CN1CCN(C2(CCc3ccccc3)CCN(C(=O)CC3CCCCN3S(=O)(=O)c3cccc(C(F)(F)F)c3)CC2)CC1 (centres unmarked) [Compound 119, 1-(4-(4-methylpiperazin-1-yl)-4-phenethylpiperidin-1-yl)-2-(1-(3-(trifluoromethyl)phenylsulfonyl)piperidin-2-yl)ethanone]",59
3,"CN1CCN(C2(c3cccc(F)c3)CCN(C(=O)CC(NS(=O)(=O)c3ccc4ccccc4c3)c3ccccc3)CC2)CC1 (centres unmarked) [Compound 120, N-(3-(4-(3-fluorophenyl)-4-(4-methylpiperazin-1-yl)piperidin-1-yl)-3-oxo-1-phenylpropyl)naphthalene-2-sulfonamide]",35
4,"CN(CCC1CCC(Cc2ccccc2)(N2CCCC2)CC1)C(=O)CC1CCCCN1S(=O)(=O)c1cccc(C(F)(F)F)c1 (centres unmarked) [Compound 121, N-(2-(4-benzyl-4-(pyrrolidin-1-yl)cyclohexyl)ethyl)-N-methyl-2-(1-(3-(trifluoromethyl)phenylsulfonyl)piperidin-2-yl)acetamide]",24
5,"Cc1cc(S(=O)(=O)N2CCCCC2CCC(=O)N2CCC(CCc3ccccc3)(N3CCN(C)CC3)CC2)c(C)cc1Cl (centres unmarked) [Compound 122, 3-(1-(4-chloro-2,5-dimethylphenylsulfonyl)piperidin-2-yl)-1-(4-(4-methylpiperazin-1-yl)-4-phenethylpiperidin-1-yl)propan-1-one]",2
6,"Cc1cc(S(=O)(=O)N2CCCCC2CCC(=O)N2CCC(c3ccccc3)(N(C)C)CC2)c(C)cc1Cl (centres unmarked) [Compound 123, 3-(1-(4-chloro-2,5-dimethylphenylsulfonyl)piperidin-2-yl)-1-(4-(dimethylamino)-4-phenylpiperidin-1-yl)propan-1-one]",69
7,"Cc1cc(S(=O)(=O)N2CCCCC2CCC(=O)N(C)CCCC2CCC(Cc3ccccc3)(N3CCCC3)CC2)c(C)cc1Cl (centres unmarked) [Compound 124, N-(3-(4-benzyl-4-(pyrrolidin-1-yl)cyclohexyl)propyl)-3-(1-(4-chloro-2,5-dimethylphenylsulfonyl)piperidin-2-yl)-N-methylpropanamide]",17
8,"CN(CCC1CCC(c2ccccc2)(N(C)C)CC1)C(=O)CC1CCCCN1S(=O)(=O)c1cccc(C(F)(F)F)c1 (centres unmarked) [Compound 125, N-(2-(4-(dimethylamino)-4-phenylcyclohexyl)ethyl)-N-methyl-2-(1-(3-(trifluoromethyl)phenylsulfonyl)piperidin-2-yl)acetamide]",99
9,"CN1CCN(C2(c3ccc(F)cc3)CCN(C(=O)COCC3CCc4ccccc4N3S(=O)(=O)c3ccc(Cl)c(Cl)c3)CC2)CC1 (centres unmarked) [Compound 126, 2-((1-(3,4-dichlorophenylsulfonyl)-1,2,3,4-tetrahydroquinolin-2-yl)methoxy)-1-(4-(4-fluorophenyl)-4-(4-methylpiperazin-1-yl)piperidin-1-yl)ethanone]",0
10,"CN(CC1CCC(Cc2ccccc2)(N2CCCC2)CC1)C(=O)COCC1CCc2ccccc2N1S(=O)(=O)c1ccc(Cl)c(Cl)c1 (centres unmarked) [Compound 127, N-((4-benzyl-4-(pyrrolidin-1-yl)cyclohexyl)methyl)-2-((1-(3,4-dichlorophenylsulfonyl)-1,2,3,4-tetrahydroquinolin-2-yl)methoxy)-N-methylacetamide]",17
11,"CN(CCCC1CCC(c2ccccc2)(N2CCCC2)CC1)C(=O)CC(NS(=O)(=O)c1ccc2ccccc2c1)c1ccccc1 (centres unmarked) [Compound 128, N-methyl-3-(naphthalene-2-sulfonamido)-3-phenyl-N-(3-(4-phenyl-4-(pyrrolidin-1-yl)cyclohexyl)propyl)propanamide]",69
12,"Cc1cc(S(=O)(=O)N2CCCCC2CCC(=O)N(C)CC2CCC(Cc3ccccc3)(N3CCCC3)CC2)c(C)cc1Cl (centres unmarked) [Compound 129, N-((4-benzyl-4-(pyrrolidin-1-yl)cyclohexyl)methyl)-3-(1-(4-chloro-2,5-dimethylphenylsulfonyl)piperidin-2-yl)-N-methylpropanamide]",9
13,"Cc1cc(S(=O)(=O)N2CCCCC2CCC(=O)N2CCC(Cc3ccccc3)(N3CCN(C)CC3)CC2)c(C)cc1Cl (centres unmarked) [Compound 130, 1-(4-benzyl-4-(4-methylpiperazin-1-yl)piperidin-1-yl)-3-(1-(4-chloro-2,5-dimethylphenylsulfonyl)piperidin-2-yl)propan-1-one]",7
14,"Cc1cc(S(=O)(=O)N2CCCCC2CCC(=O)N(C)CCC2CCC(CCc3ccccc3)(N3CCCC3)CC2)c(C)cc1Cl (centres unmarked) [Compound 131, 3-(1-(4-chloro-2,5-dimethylphenylsulfonyl)piperidin-2-yl)-N-methyl-N-(2-(4-phenethyl-4-(pyrrolidin-1-yl)cyclohexyl)ethyl)propanamide]",33
15,"Cc1cc(S(=O)(=O)N2CCCCC2CCC(=O)N(C)CCC2CCC(CCc3ccccc3)(N(C)C)CC2)c(C)cc1Cl (centres unmarked) [Compound 132, 3-(1-(4-chloro-2,5-dimethylphenylsulfonyl)piperidin-2-yl)-N-(2-(4-(dimethylamino)-4-phenethylcyclohexyl)ethyl)-N-methylpropanamide]",45
16,"CN(CCCC1CCC(c2ccccc2)(N2CCCC2)CC1)C(=O)COCC1CCc2ccccc2N1S(=O)(=O)c1ccc(Cl)c(Cl)c1 (centres unmarked) [Compound 133, 2-((1-(3,4-dichlorophenylsulfonyl)-1,2,3,4-tetrahydroquinolin-2-yl)methoxy)-N-methyl-N-(3-(4-phenyl-4-(pyrrolidin-1-yl)cyclohexyl)propyl)acetamide]",52
17,"CN(CCCC1CCC(CCc2ccccc2)(N2CCCC2)CC1)C(=O)CC1CCCCN1S(=O)(=O)c1cccc(C(F)(F)F)c1 (centres unmarked) [Compound 134, N-methyl-N-(3-(4-phenethyl-4-(pyrrolidin-1-yl)cyclohexyl)propyl)-2-(1-(3-(trifluoromethyl)phenylsulfonyl)piperidin-2-yl)acetamide]",2
18,"Cc1cc(S(=O)(=O)N2CCCCC2CCC(=O)N2CCC(c3cccc(F)c3)(N3CCN(C)CC3)CC2)c(C)cc1Cl (centres unmarked) [Compound 135, 3-(1-(4-chloro-2,5-dimethylphenylsulfonyl)piperidin-2-yl)-1-(4-(3-fluorophenyl)-4-(4-methylpiperazin-1-yl)piperidin-1-yl)propan-1-one]",4
19,"Cc1cc(S(=O)(=O)N2CCCCC2CCC(=O)N(C)CCCC2CCC(c3ccccc3)(N3CCCC3)CC2)c(C)cc1Cl (centres unmarked) [Compound 136, 3-(1-(4-chloro-2,5-dimethylphenylsulfonyl)piperidin-2-yl)-N-methyl-N-(3-(4-phenyl-4-(pyrrolidin-1-yl)cyclohexyl)propyl)propanamide]",66
20,"Cc1cc(S(=O)(=O)N2CCCCC2CCC(=O)N2CCC(CCc3ccccc3)(N(C)C)CC2)c(C)cc1Cl (centres unmarked) [Compound 137, 3-(1-(4-chloro-2,5-dimethylphenylsulfonyl)piperidin-2-yl)-1-(4-(dimethylamino)-4-phenethylpiperidin-1-yl)propan-1-one]",34

# — US20090253669A1, “Substituted Sulfonamide Compounds” (GRUENENTHAL GmbH, priority 2008, published 2009)
